Data reported in ChEMBL document CHEMBL1127838, “Development of a receptor-interaction model for serotonin 5-HT2 receptor antagonists. Predicting selectivity with respect to dopamine D2 receptors” (J Med Chem, 1994).

Chains of the proteins cited; added tags and fusions are not shown.
UniProt P61169, whole entry: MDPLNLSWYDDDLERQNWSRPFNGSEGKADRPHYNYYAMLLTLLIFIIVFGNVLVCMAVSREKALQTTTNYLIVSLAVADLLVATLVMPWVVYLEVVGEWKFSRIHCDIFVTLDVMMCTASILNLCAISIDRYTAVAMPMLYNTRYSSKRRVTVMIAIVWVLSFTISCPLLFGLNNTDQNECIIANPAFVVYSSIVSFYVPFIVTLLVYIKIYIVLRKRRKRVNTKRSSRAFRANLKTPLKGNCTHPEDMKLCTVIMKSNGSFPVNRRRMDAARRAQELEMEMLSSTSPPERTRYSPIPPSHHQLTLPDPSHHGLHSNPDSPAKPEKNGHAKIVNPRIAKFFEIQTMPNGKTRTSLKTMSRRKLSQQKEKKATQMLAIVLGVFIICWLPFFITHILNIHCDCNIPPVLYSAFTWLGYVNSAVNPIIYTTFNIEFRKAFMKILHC

Molecular target: D(2) dopamine receptor (Rattus norvegicus, UniProt P61169)
Experiment: Binding affinity at dopamine D2 receptor by [3H]spiperone displacement.

- IC50: 360 nM
SMILES: O=C1NCCN1CCN1CCN([C@@H]2C[C@@H](c3ccc(F)cc3)c3cc(Cl)ccc32)CC1
